From BindingDB's records for patent US10357546 (University of Notre Dame Du Lac, 2019)

Sequences of proteins named here, by UniProt entry; tags and fusion partners are left off. A change or cut given only in a name is not applied to a line headed by its entry.
UniProt P22894: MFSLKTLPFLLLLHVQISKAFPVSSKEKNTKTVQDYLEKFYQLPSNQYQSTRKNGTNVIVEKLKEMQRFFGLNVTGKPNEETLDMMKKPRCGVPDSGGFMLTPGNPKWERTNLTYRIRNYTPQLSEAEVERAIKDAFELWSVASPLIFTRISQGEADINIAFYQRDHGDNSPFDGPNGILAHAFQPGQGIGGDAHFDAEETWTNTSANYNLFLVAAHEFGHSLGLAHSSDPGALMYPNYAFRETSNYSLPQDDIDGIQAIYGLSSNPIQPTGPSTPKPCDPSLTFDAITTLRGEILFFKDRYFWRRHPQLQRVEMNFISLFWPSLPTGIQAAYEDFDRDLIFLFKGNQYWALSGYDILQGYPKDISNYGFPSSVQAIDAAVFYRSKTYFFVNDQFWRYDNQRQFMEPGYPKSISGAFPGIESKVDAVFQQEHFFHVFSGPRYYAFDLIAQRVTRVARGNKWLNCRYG

Biological target: Neutrophil collagenase (Homo sapiens, UniProt P22894)
Assay: Enzyme Inhibition Assay

Structure (SMILES): CC(=O)Nc1ccc(Oc2ccc(S(=O)(=O)CC3CS3)cc2)cc1 (stereo unspecified) [US10357546, ND-364]
- Ki: 3.4 µM
